Molecular target: T1, NAD-dependent protein deacetylase sirtuin-1 (Homo sapiens, UniProt Q96EB6)
T1 sequence (Q96EB6 whole entry): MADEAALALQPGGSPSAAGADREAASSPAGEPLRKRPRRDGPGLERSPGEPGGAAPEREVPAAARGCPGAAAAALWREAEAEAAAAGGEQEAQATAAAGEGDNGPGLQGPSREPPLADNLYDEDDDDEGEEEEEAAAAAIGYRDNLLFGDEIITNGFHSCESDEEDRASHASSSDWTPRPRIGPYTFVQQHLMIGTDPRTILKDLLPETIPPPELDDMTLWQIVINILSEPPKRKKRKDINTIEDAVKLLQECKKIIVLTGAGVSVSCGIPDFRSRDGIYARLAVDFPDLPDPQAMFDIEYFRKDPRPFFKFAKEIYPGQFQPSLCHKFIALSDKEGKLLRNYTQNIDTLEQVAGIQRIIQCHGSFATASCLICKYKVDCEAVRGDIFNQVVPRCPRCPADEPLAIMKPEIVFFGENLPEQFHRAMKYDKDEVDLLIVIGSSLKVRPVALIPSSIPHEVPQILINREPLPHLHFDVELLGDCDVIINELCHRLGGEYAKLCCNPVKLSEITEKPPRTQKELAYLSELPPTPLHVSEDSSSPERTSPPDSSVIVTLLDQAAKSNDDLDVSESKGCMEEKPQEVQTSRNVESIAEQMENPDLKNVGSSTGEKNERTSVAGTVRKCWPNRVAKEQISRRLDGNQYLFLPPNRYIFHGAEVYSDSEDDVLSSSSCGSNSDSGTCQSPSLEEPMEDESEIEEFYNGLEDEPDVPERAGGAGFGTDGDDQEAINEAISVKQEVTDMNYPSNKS
Test: Inhibition of human full length SIRT1 expressed in DE3 cells by fluorimetric assay
Type: cell-based

With O=C1CCc2c(ccc3ccccc23)O1 [SPLITOMICIN] the IC50 was > 500 µM.

Cn1cc(C2=C(c3cn(CCCSC(=N)N)c4ccccc34)C(=O)NC2=O)c2ccccc21 [BISINDOLYLMALEIMIDE IX] showed an IC50 of 25 µM.
